In patent US20240139185A1, “COMPOUNDS THAT PARTICIPATE IN COOPERATIVE BINDING AND USES THEREOF” (Revolution Medicines, Inc., priority 2018, published 2024):

Legend:
[1] = molecular target: BRAF-GTP-KRAS-G12C complex (Homo sapiens, UniProt P01116+P62937, G12C); assay: KRAS-BRAF complex disruption through competition with CYPA-compound by TR-FRET; settings: read-out: BRAF-GTP-KRAS-G12C Disruption; biochemical BRAF-KRAS G12C-GTP disruption assay EC50, with CYPA
Protocol: In this example, TR-FRET was used to measure the compound-facilitated disruption of a KRAS-BRAF complex. A mixture of tagless Cyclophilin A, His6-KRAS G12C-GMP-PNP, and GST-BRAF RAS binding domain was added to a 384-well assay plate containing compounds of the invention and incubated for 3 hours. A mixture of Anti-His Eu-W1024 and anti-GST allophycocyanin was then added and the reaction was incubated for an additional 1.5 hours. TR-FRET signal was read on an EnVision microplate reader (Perkin Elmer, Ex 320 nm, Em 665/615 nm). Compounds that facilitate disruption of a KRAS_BRAF complex were identified as those eliciting a decrease in the TR-FRET ratio relative to DMSO control wells. To determine the presenter-dependence of the compound-mediated KRAS-BRAF complex disruption, Cyclophilin A was left out of the initial incubation (see Table 5). To determine G12C specificity of the compound-mediated KRAS-BRAF complex disruption, wild-type KRAS was used instead of G12C KRAS (see Table 5).
Reagents and Instrument • Tagless CYPA; 519 μM in PBS buffer, pH 7.4 • GST BRAF; 110 μM in PBS buffer, pH 7.4 • His6-KRASG12C-GMP-PNP; 50 μM in PBS buffer, pH 7.4 • His6-KRASWT-GMP-PNP; 40 μM in PBS buffer, pH 7.4 • Anti-His Eu-W1024 (LANCE® Eu-W1024; Perkin Elmer) • Anti-GST allophycocyanin (Anti-GST IgG conjugated to SureLight®-Allophycocyanin; Perkin Elmer; Product Number AD0059G) • Test compounds, 10 mM in 100% DMSO • EnVision (Perkin Elmer) • Combi MultiDrop liquid dispenser with 8-channel small volume cassette • 384-well ProxiPlate (black)
Experimental Protocol • 1. Use Mosquito to dispense 100 nL/well of compounds (varying concentration in […]) into 384-well black ProxiPlate to make assay-ready-plate (ARP). • 2. Make assay buffer containing 25 mM Hepes pH 7.3, 100 mM NaCl, 5 mM MgCl2, 0.05% BSA, and 0.002% Tween-20. • 3. Make PRE-MIX A: delivers final concentrations of 50 nM of His6-KRas G12C-GTP (1-169) and 500 nM of tagless CypA (1-165) in assay buffer. • a. For presenter dependence experiments, omit addition of tagless CypA • b. For G12C/wt specificity experiments, substitute His6-KRas WT-GTP (1-169) for His6-KRas G12C-GTP (1-169) • 4. Use MultiDrop Combi to dispense PRE-MIX A into ARP, 7 μl/well. Incubate 3 hr at room temperature. • 5. Make PRE-MIX B: delivers final concentrations of 10 nM of anti-His Eu-W1024 and 50 nM of anti-GST APC. • 6. Use MultiDrop Combi to dispense PRE-MIX B into ARP, 3 μl/well. Shake briefly on Combi and incubate 1.5 hr at room temperature. • 7. Read on EnVision (Ex: 320 nm; Em1: 615 nm; Em2: 665 nm). • 8. Data is processed using Dotmatics. Curves are fit using a 4-parameter non-linear fit to determine the EC50 value for formation of the ternary complex.

pERK in H358 cells = assay: pERK inhibition in H358 cells; settings: read-out: Cellular pERK inhibition, 4 hours treatment
Protocol: H358 cells (5500 cells) derived from a human lung cancer were plated in a 96 well plate in media (100 uL, RPMI with 10% FBS). After 24 hours, cells were treated for 4 hours with compound or DMSO. Cells were washed twice with room temperature TBS (200 uL) and fixed for 20 minutes with 4% paraformaldehyde diluted with TBS (150 uL). Cells were washed four times for five minutes with 0.1% TritonX/TBS (150 uL) to permeabilize the membrane. Cells were incubated with TBS blocking buffer (100 uL) at room temperature for 60 minutes. Primary antibody (Phospho-p44/42 MAPK (Erk1/2) (Thr202/Tyr204) (D13.14.4E) XP® Rabbit mAb #4370, Cell Signaling Technology; 1:200) was added, and the cells were incubated overnight at 4 C. The cells were washed four times for five minutes with 0.1% Tween 20/TBS (150 uL). Secondary antibody (IRDye® 800CW Goat-Anti-Rabbit IgG, Li-Cor Biosciences; 1:1000) and DRAQ5™ (Invitrogen; 1:2000) was added, and the cells were incubated for 1 hour at room temperature. The cells were washed four times for five minutes with 0.1% Tween 20/TBS (150 uL) and scanned using the LICOR (700 and 800 nm).

In the case of `C=CC(=O)N1CC[C@H](C(=O)N(C)[C@H](C(=O)N[C@H]2Cc3cc(O)cc(c3)-c3ccc4c(-c5cccc(C(=O)OC)c5)cn(c4c3)CC(C)(C)COC(=O)[C@@H]3CCCN(N3)C2=O)C(C)C)C1`, the EC50 [1] is reported as > 5 µM and the IC50 (pERK in H358 cells) is reported as > 10 µM.
In the case of `CC(C)[C@@H](C(=O)N[C@H]1Cc2cc(O)cc(c2)-c2ccc3c(-c4cccc5ncoc45)cn(c3c2)CC(C)(C)COC(=O)[C@@H]2CCCN(N2)C1=O)N(C)C(=O)C1CN(C(=O)[C@@H](C)Cl)C1`, the EC50 [1] is reported as 0.5 to 5 µM and the IC50 (pERK in H358 cells) is reported as > 10 µM.
With `C=CC(=O)N1CC[C@H](C(=O)N(C)[C@H](C(=O)N[C@H]2Cc3cc(O)cc(c3)-c3ccc4c(-c5ccccc5C(=O)OC)cn(c4c3)CC(C)(C)COC(=O)[C@@H]3CCCN(N3)C2=O)C(C)C)C1` the EC50 [1] was 0.5 to 5 µM and the IC50 (pERK in H358 cells) was 1 to 10 µM.
With `CC(C)[C@@H](C(=O)N[C@H]1Cc2cc(O)cc(c2)-c2ccc3c(C(C)(C)C#N)cn(c3c2)CC(C)(C)COC(=O)[C@@H]2CCCN(N2)C1=O)N(C)C(=O)C1CCN(C(=O)[C@H](C)Cl)CC1` the EC50 [1] was > 5 µM and the IC50 (pERK in H358 cells) was > 10 µM.
Work on `C=CC(=O)N1CCC2(CCCN([C@H](C(=O)N[C@H]3Cc4cc(O)cc(c4)-c4ccc5c(C(C)(C)C#N)cn(c5c4)CC(C)(C)COC(=O)[C@@H]4CCCN(N4)C3=O)C(C)C)C2=O)C1` (single isomer, unassigned) [360] yielded an EC50 [1] of 0.5 to 5 µM and an IC50 (pERK in H358 cells) of 1 to 10 µM.
With `C=CC(=O)N1CC[C@H](C(=O)N(C)[C@H](C(=O)N[C@H]2Cc3cc(O)cc(c3)-c3ccc4c(c3)c(cn4-c3c(Br)cccc3C#N)CC(C)COC(=O)[C@@H]3CCCN(N3)C2=O)C(C)C)C1` (single isomer, unassigned) [383] the EC50 [1] was 0.5 to 5 µM and the IC50 (pERK in H358 cells) was > 10 µM.
For `CC(C)[C@@H](C(=O)N[C@H]1Cc2cc(O)cc(c2)-c2ccc3c(-c4ccccc4CC#N)cn(c3c2)CC(C)(C)COC(=O)[C@@H]2CCCN(N2)C1=O)N(C)C(=O)C1CN(C(=O)CCl)C1`, the EC50 [1] was < 0.5 µM and the IC50 (pERK in H358 cells) was < 1 µM.
For `CC(C)[C@@H](C(=O)N[C@H]1Cc2cc(O)cc(c2)-c2ccc3cc(Cc4cccnc4)n(c3c2)C[C@H](C)COC(=O)[C@@H]2CCCN(N2)C1=O)N(C)C(=O)C1CN(C(=O)CCl)C1`, the EC50 [1] was < 0.5 µM and the IC50 (pERK in H358 cells) was > 10 µM.
`C=CC(=O)N1CC[C@H](C(=O)N(C)[C@H](C(=O)N[C@H]2Cc3cc(O)cc(c3)-c3ccc4c(c3)N(CC(C)(C)COC(=O)[C@@H]3CCCN(N3)C2=O)CC42COc3ccccc32)C(C)C)C1` (single isomer, unassigned) [402] was tested, and the EC50 [1] was < 0.5 µM and the IC50 (pERK in H358 cells) was < 1 µM.
`CC(C)[C@@H](C(=O)N[C@H]1Cc2cc(O)cc(c2)-c2ccc3c(C(C)(C)C#N)cn(c3c2)CC(C)(C)COC(=O)[C@@H]2CCCN(N2)C1=O)N(C)C(=O)C1CCN(C(=O)[C@@H](C)Cl)CC1` showed an EC50 [1] of 0.5 to 5 µM and an IC50 (pERK in H358 cells) of 1 to 10 µM.
For `C=CC(=O)N1CC[C@H](C(=O)N(C)[C@H](C(=O)N[C@H]2Cc3cc(O)cc(c3)-c3ccc4c(c3)N(CC(C)(C)COC(=O)[C@@H]3CCCN(N3)C2=O)CC42COc3ccccc32)C(C)C)C1` (single isomer, unassigned) [401], the EC50 [1] was 0.5 to 5 µM and the IC50 (pERK in H358 cells) was > 10 µM.
`C=CC(=O)N1CC[C@H](C(=O)N(C)[C@H](C(=O)N[C@H]2Cc3cc(O)cc(c3)-c3ccc4c(c3)N(CC(C)(C)COC(=O)[C@@H]3CCCN(N3)C2=O)CC4(C)C#Cc2cccnc2)C(C)C)C1` (single isomer, unassigned) was tested, and the EC50 [1] was > 5 µM and the IC50 (pERK in H358 cells) was > 10 µM.
With `CC(C)[C@@H](C(=O)N[C@H]1Cc2cc(O)cc(c2)-c2ccc3ccn(c3c2F)C[C@H](C)CNC(=O)[C@@H]2CCCN(N2)C1=O)N(C)C(=O)C1CN(C(=O)CCl)C1` the EC50 [1] was > 5 µM and the IC50 (pERK in H358 cells) was > 10 µM.
